Reference: patent US9023876B2, “Compounds and methods for regulating integrins” (Adhaere Pharmaceuticals, Inc., priority 2010, dated 2015)

Experiments:
[1] = Solubility (use in zebrafish experiment); settings: precluded use in zebrafish experiment
Source text: To visualize effects of leukadherin treatment on leukocyte accumulation in live animals, we used transgenic Tg(mpx::eGFP) zebrafish that express GFP under a myeloid-specific peroxidase gene (mpx) promoter to specifically fluorescently tag neutrophils for live imaging of leukocyte recruitment. Tailfin transection in zebrafish larvae at 3 days postfertilization (dpf) lead to a rapid and robust recruitment of neutrophils to the site of tissue injury (FIG. 4A-C). […] Finally, to determine if the in vivo effects of leukadherin treatment were reversible, we administered LA1 and LA2 to uninjured zebrafish for 4-8 h, rinsed the zebrafish, induced tailfin injury and quantitated neutrophil accumulation 4 h post-wash.

[2] = system: Tg(mpx::eGFP) zebrafish larvae; assay: Zebrafish tailfin injury assay; settings: 4 h post injury; vehicle 34.6±4.5
Method: Transgenic Tg(mpx::eGFP) were maintained according to standard protocols. Tailfin injury in three days post fertilization (dpf) larvae was performed as described. Larvae were anesthetized by immersion in E3 with […] tricane, and tail was completely transected with a sterile microdissection scalpel in accordance with the approved protocols and were recovered for the indicated time points. Zebrafish larvae (3 dpf) were treated with compounds as described (Ref). Briefly, small molecule compounds were administered by immersing the larvae in a solution of the compounds in E3. The final concentration of DMSO was kept at <1%. For the assessment of the inflammatory response, injured larvae were analyzed at 4 h post-injury. For the post-wash assay, uninjured larvae incubated with the compounds in E3 for 4-8 h, washed into E3 and injured. Larvae were analyzed using a Leica DMI6000B microscope and an Hamamatsu Orca-3CCD camera using Volocity. Excitation was performed using the laser at 488 nm and the images were analyzed using Volocity. The number of fluorescent neutrophils at the site of inflammation were counted by eye in a blinded fashion. […]

[3] = target: CD11b A-domain (αA-domain) (Homo sapiens, UniProt P11215); assay: αA-domain ligand-binding assay (GST-αA-domain to immobilized Fg); settings: to level of activating mutant I316G
Source text: Purification of recombinant CD11b A-Domain (.Alpha.A-Domain). Recombinant human aA-domains were constructed and purified according to published protocols. […] The aA-domain in its active conformation was generated by replacing Ile^316 with Gly (1316G [55]) using forward primer 5′-[…]-3′ (SEQ ID NO: 3) and reverse primer 5′-[…]-3′ (SEQ ID NO: 4). The insert was digested with BamHI and SmaI and ligated into pGEX-2T vector also digested with BamHI and SmaI. All constructs were confirmed by direct DNA sequencing. All recombinant proteins were expressed as glutathione S-transferase (GST) fusion proteins in Escherichia coli and purified by affinity chromatography (Glutathione-beads, Sigma) following manufacturer's instructions. Purified protein preparations were dialyzed against 20 mm Tris-HCl, pH 7.5, 150 mm NaCl (Tris-buffered saline) and subsequently concentrated using Amicon-10 columns (Millipore) and stored at −80° C. […]
Maxisorp 96-well plates were coated with Fg (1 μg/well) in 10 mM PBS, pH 7.4 overnight and blocked with 1% bovine serum albumin in PBS. […] Subsequently, the amount of bound protein was determined by incubating with anti-GST antibody conjugated to horseradish peroxidase (GE, Piscataway, N.J.) (1:2000 dilution) for 1 hr. […] Absorbance was read using Spectromax M5 spectrophotometer (Molecular Devices, Sunnyvale, Calif.). […]

## CCOC(=O)CN1C(=O)SC(=Cc2ccc(-c3ccc(Cl)cc3Cl)o2)C1=O
[1]
  solubility: lower solubility

## O=C(O)c1ccc(-c2ccc(C=C3SC(=O)N(c4ccccc4)C3=O)o2)cc1
[2]
  neutrophil accumulation in the zebrafish tailfin (number of neutrophils): 13.3±2.1
[3]
  binding of the WT αA to the immobilized ligand: increased binding
